Results as given in article PMC9077246 (2018).

Protein sequences, listed by entry. Tags and fused reporters are not part of them.
UniProt P27338, whole entry, species assumed: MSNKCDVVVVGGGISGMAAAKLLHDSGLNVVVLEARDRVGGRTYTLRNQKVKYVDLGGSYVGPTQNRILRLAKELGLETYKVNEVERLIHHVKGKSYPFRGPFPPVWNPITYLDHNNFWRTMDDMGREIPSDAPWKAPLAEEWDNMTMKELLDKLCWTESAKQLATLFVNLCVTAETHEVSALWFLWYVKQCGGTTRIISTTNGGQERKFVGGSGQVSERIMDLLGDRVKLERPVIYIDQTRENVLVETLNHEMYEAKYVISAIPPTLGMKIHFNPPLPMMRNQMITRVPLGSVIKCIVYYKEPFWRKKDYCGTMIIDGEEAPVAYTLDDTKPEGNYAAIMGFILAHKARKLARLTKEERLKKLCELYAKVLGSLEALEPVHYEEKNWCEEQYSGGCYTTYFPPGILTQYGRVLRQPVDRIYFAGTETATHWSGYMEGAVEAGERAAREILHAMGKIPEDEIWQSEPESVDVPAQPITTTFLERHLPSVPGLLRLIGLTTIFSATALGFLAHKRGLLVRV
UniProt P21397, whole entry, species assumed: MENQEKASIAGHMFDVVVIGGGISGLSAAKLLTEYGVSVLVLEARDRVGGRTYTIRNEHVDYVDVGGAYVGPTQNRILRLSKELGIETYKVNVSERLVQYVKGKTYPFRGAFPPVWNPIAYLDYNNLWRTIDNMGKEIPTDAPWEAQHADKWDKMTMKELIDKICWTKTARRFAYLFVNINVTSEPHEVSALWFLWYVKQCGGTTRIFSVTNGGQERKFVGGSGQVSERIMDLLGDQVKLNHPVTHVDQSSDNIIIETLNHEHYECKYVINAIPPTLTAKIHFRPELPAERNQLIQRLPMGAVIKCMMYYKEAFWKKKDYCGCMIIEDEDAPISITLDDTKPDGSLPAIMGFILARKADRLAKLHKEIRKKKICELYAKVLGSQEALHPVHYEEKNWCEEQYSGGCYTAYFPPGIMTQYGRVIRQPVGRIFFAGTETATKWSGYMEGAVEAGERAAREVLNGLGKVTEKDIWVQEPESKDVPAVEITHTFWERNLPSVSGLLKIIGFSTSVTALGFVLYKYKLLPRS

Assays:
MAO-B = MAO-B (Homo sapiens, UniProt P27338); experiment: biochemical; conditions: IC50, Table 1, mean ± SEM, eight-point experiments, three independent experiments
MAO-A = MAO-A (Homo sapiens, UniProt P21397); experiment: biochemical; conditions: IC50, Table 1, mean ± SEM, eight-point experiments, three independent experiments

Structure (SMILES)	IC50 (MAO-B)	IC50 (MAO-A)
NC1CCC(N[C@@H]2C[C@H]2c2ccccc2)CC1 (stereo partly drawn) [Compound 6, N1-[(1R, 2S)-2-phenylcyclopropyl]cyclohexane-1,4-diamine dihydrochloride, reference compound]	194 ± 114 µM	–
N[C@@H]1CC12CCc1ccccc12 (stereo partly drawn) [Compound 8a, (2R)-2′,3′-Dihydrospiro[cyclopropane-1,1′-inden]-2-amine hydrochloride]	–	> 100 µM
N[C@H]1CC12CCc1ccccc12 (stereo partly drawn) [Compound 8b, (2S)-2′,3′-Dihydrospiro[cyclopropane-1,1′-inden]-2-amine hydrochloride]	–	> 100 µM

Where a name gives a salt, the structure may show the parent alone.
